Target: T1, VEGF165 (UniProt P15692-4 27-191)
T1 construct: also called VEGFA
Assay: ELISA, VEGF165

Amino acid sequences for entries named in this document (tags omitted). Chains listed by the source or under a name are the forms on record and can include a tag or linker.
UniProt P15692, other isoform, or with tags, fused parts or gaps limits assumed: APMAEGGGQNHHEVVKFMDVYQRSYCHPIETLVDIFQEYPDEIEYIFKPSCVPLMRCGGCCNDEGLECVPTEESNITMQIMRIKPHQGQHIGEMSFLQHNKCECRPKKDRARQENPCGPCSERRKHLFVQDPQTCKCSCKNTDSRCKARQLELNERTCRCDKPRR

B1: Ranibizumab (Fab, V domains shown)
VH: EVQLVESGGGLVQPGGSLRLSCAASGYDFTHYGMNWVRQAPGKGLEWVGWINTYTGEPTYAADFKRRFTFSLDTSKSTAYLQMNSLRAEDTAVYYCAKYPYYYGTSHWYFDVWGQGTLVTVSS
VL: DIQLTQSPSSLSASVGDRVTITCSASQDISNYLNWYQQKPGKAPKVLIYFTSSLHSGVPSRFSGSGSGTDFTLTISSLQPEDFATYYCQQYSTVPWTFGQGTKVEIKR
Kd: 0.15 nM

— US20190375821A1 (IBENTRUS, published 2019)
